Assay results reported in patent US8735412B2, “Sulfoximine-substituted anilinopyrimidine derivatives as CDK inhibitors, the production thereof, and use as medicine” (Bayer Intellectual Property GmbH, priority 2008, dated 2014).

The chains behind the UniProt entries cited, without tags or fusion partners. Residues count along the entry.
UniProt P35968, 20-1356: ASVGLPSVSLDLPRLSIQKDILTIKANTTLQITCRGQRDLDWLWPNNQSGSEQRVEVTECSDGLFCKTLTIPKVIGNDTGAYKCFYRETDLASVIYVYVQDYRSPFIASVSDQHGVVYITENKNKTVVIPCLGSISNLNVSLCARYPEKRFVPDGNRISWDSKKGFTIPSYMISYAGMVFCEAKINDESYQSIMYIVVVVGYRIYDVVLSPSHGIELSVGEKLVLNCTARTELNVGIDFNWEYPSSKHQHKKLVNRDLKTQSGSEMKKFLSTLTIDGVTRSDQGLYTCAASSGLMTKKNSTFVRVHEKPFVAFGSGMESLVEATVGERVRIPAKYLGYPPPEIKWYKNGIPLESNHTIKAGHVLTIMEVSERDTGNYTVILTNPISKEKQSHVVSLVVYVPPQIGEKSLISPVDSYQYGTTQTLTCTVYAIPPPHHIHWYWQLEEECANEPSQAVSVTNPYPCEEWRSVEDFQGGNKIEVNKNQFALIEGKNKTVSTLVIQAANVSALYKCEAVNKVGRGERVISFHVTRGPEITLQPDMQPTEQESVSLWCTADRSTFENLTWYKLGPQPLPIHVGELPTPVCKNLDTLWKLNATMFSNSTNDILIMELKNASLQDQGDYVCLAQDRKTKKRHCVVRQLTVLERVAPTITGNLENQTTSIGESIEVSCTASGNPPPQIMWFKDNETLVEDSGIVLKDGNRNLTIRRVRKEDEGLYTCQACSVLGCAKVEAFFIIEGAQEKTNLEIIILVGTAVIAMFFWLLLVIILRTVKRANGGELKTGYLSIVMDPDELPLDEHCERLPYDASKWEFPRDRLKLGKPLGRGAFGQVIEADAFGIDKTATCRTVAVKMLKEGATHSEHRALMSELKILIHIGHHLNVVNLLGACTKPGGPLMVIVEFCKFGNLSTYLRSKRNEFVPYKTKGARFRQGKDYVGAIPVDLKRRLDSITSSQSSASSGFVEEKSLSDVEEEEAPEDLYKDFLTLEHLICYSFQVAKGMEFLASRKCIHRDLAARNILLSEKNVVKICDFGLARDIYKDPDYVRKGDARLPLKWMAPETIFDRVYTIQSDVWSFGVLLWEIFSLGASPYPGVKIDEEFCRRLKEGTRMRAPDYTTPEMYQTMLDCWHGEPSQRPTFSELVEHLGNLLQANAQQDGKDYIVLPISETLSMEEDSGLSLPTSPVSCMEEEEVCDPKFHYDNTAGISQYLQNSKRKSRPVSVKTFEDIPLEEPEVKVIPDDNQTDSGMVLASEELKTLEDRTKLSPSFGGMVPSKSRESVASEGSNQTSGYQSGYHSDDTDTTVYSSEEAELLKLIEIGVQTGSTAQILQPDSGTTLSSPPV

How the values were obtained:
[1] = target: T1, VEGF receptor tyrosine kinase-2 (Homo sapiens, UniProt P35968); assay: VEGF receptor-2 kinase assay (Assay 3); type: biochemical; conditions: 8 μM ATP, poly-(Glu4Tyr) substrate; read-out: VEGF-R2 (Assay 3) Concentration for 50% inhibition of enzyme activity, IC50
T1 construct: GST; made in house; host or cells: baculovirus-infected insect cells (Sf9)
Experimental: 10.3 Assay 3: VEGF Receptor-2 Kinase Assay
Recombinant VEGF receptor tyrosine kinase-2 was purified as GST fusion protein from baculovirus-infected insect cells (Sf9). Poly-(Glu4Tyr), used as kinase substrate, was purchased from the company Sigma.
VEGF receptor tyrosine kinase (90 ng/measuring point) was incubated for 10 min at 22° C. in the presence of various concentrations of test substances (0 μM, and within the range 0.001-30 μM) in 30 μl assay buffer [40 mM Tris/HCl pH5.5, 10 mM MgCl2, 1 mM MnCl2, 3 μM Na ortho-vanadate, 1.0 mM dithiothreitol, 8 μM adenosine triphosphate (ATP), 0.96 μg/measuring point poly-(Glu4Tyr), 0.2 μCi/measuring point ^33P-gamma ATP, 1.4% dimethylsulfoxide]. The reaction was stopped by adding EDTA solution (250 mM, pH8.0, 15 μl/measuring point).
From each reaction mixture, 15 μl was applied to P30 filter strips (from Wallac), and unincorporated ^33P-ATP was removed by washing the filter strips three times, for 10 min each time, in 0.5% phosphoric acid. […] The amount of incorporated ^33P (substrate phosphorylation) was determined by scintillation measurement in a gamma-radiation measuring instrument (Wallac). […] The IC50 values were determined by means of a 4-parameter fit using the company's own software.

[2] = target: T2, CDK2/CycE (Homo sapiens, UniProt P24941); assay: CDK2/CycE kinase assay (Assay 2); type: biochemical; conditions: 0.5 μM ATP, histon IIIS substrate; read-out: CDK2/CycE (Assay 2) Concentration for 50% inhibition of enzyme activity, IC50
T2 construct: purchased ProQinase GmbH, Freiburg; host or cells: baculovirus-infected insect cells (Sf9)
Experimental: 10.2 Assay 2: CDK2/CycE Kinase Assay
Recombinant CDK2 and CycE-GST fusion proteins, purified from baculovirus-infected insect cells (Sf9), were purchased from ProQinase GmbH, Freiburg. Histon IIIS, used as kinase substrate, was purchased from the company Sigma. CDK2/CycE (50 ng/measuring point) was incubated for 10 min at 22° C. in the presence of various concentrations of test substances (0 μM, and within the range 0.01-100 μM) in assay buffer [50 mM Tris/HCl pH8.0, 10 mM MgCl2, 0.1 mM Na ortho-vanadate, 1.0 mM dithiothreitol, 0.5 μM adenosine triphosphate (ATP), 10 μg/measuring point histon IIIS, 0.2 μCi/measuring point ^33P-gamma ATP, 0.05% NP40, 1.25% dimethylsulfoxide]. The reaction was stopped by adding EDTA solution (250 mM, pH8.0, 15 μl/measuring point).
From each reaction mixture, 15 μl was applied to P30 filter strips (from Wallac), and unincorporated ^33P-ATP was removed by washing the filter strips three times, for 10 min each time, in 0.5% phosphoric acid. After drying the filter strips for 1 hour at 70° C., the filter strips were covered with scintillator strips (MeltiLex™ A, from Wallac) and stoved for 1 hour at 90° C. The amount of incorporated ^33P (substrate phosphorylation) was determined by scintillation measurement in a gamma-radiation measuring instrument (Wallac). […] The IC50 values were determined by means of a 4-parameter fit using the company's own software.

C[C@@H](Nc1nc(Nc2ccc([S@](=N)(=O)C3CC3)cc2)ncc1Br)C(C)(C)O [Example V11, (R)-S-[4-({5-bromo-4-[(R)-(2-hydroxy-1,2-dimethylpropyl)amino]pyrimidin-2-yl}amino)phenyl]-S-cyclopropyl-sulfoximide]
IC50 [1]: 59 nM

C[C@@H](O)[C@@H](C)Oc1nc(Nc2ccc(S(C)(=N)=O)cc2)ncc1Br (some centres unmarked) [Example V13]
IC50 [2]: 4 nM
